Test results: PubChem BioAssay AID624465 (National Center for Advancing Translational Sciences (NCATS), 2012)
The list shows a part of the results, in another mix than the full data. Some structures show a salt or complex split into parts, the way the source records it. Calls of active or inactive are those of the source. Cut-off read from the data, not from the text of the source: active = activation above about 40%; inconclusive = between about 15% and that limit; inactive = weaker than that.

The chains behind the UniProt entries cited, without tags or fusion partners.
UniProt P14416, whole entry: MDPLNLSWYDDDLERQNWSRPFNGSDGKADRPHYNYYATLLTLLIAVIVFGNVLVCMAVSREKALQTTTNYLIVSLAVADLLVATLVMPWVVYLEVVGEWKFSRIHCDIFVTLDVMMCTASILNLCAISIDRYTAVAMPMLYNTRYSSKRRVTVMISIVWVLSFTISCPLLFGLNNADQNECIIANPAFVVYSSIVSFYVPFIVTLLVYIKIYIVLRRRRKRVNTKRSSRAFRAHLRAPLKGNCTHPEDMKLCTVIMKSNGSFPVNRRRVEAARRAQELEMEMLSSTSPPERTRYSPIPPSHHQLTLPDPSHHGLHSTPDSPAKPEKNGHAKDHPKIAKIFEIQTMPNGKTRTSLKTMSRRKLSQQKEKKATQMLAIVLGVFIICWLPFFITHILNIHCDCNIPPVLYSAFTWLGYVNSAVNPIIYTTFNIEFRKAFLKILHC

What follows are compounds tested against D(2) dopamine receptor (Homo sapiens) (UniProt P14416) (assay: Beta-Arrestin HTS for Positive Allosteric Modulators of the Human D2 Dopamine Receptor: Agonists). Conditions: DiscoveRx PathHunter D2 beta-arrestin, luminescence, 90 min; hits give high values; 100% = 57 uM dopamine signal.
Excerpt: There is great interest in identifying small molecule ligands for G-protein coupled receptors (GPCRs) as nearly 50% of all FDA-approved drugs target these important receptor proteins. […] Amongst the dopamine receptors (DARs), the D2 is arguably one of the most validated drug targets in neurology and psychiatry. For instance, all receptor-based antiparkinsonian drugs primarily work via stimulating the D2 DAR, whereas all FDA-approved antipsychotic agents are antagonists of this receptor. The D2 DAR is also therapeutically targeted in other disorders such as restless legs syndrome, tardive dyskinesia, Tourette's syndrome, and hyperprolactinemia.
To this end, a miniaturized qHTS screen was developed to be screened against the Molecular Libraries Small Molecule Repository (MLSMR). This assay seeks to identify agonists against the D2 DAR.
NIH Molecular Libraries Probe Production Network [MLPCN]
NIH Chemical Genomics Center [NCGC]
PI Name: David Sibley, National Institutes of Neurological Disorders and Stroke
DiscoveRx D2 cells were thawed from frozen stock and seeded at 2,100 cells/ 3 uL/well media (DiscoveRx Plating Reagent 2) with MultiDrop Combi dispenser (Thermo Scientific, Logan, UT) onto white tissue culture treated 1536-well Aurora plates (Brooks Automation, Chelmsford, MA) and allowed to attach overnight at 37 deg C, 5% CO2. Next, 23 nL/well of compound solutions in DMSO were added with a pintool transfer (Kalypsis, San Diego, CA). As the positive control, 1 uL/well dopamine (EC100, 57 uM final concentration) diluted in buffer (HBSS + 10 mM HEPES + SMB + 0.1% Tween-20) was dispensed to 1 column of each plate. The rest of the plate was dispensed with buffer only, 1 uL/well as well. The cells were stimulated by compounds or dopamine control for 90 minutes at 37 deg C, 5% CO2, after which 1.5 ul/well of DiscoveRx detection reagent was added with BioRAPTR FRD dispenser. The detection reagent was prepared by mixing of Galacton Star Substrate, Emerald II solution and PathHunter buffer (supplied by the assay kit) together at 1:5:19 proportion accordingly just prior to dispensing. The plates were incubated at ambient temperature for 1 hour and then the luminescent signal was read on ViewLux plate reader (PerkinElmer, Waltham, MA).
For CN(C)C1(CNC(=O)c2cccc(C#N)c2)CCCCC1, the activation was inactive: -1.25%.
O=c1[nH]c2ccccc2n1C1CCN(C(c2ccccc2)c2nnnn2C2CCCC2)CC1 (configuration not stated) was tested, and the activation was inactive: -2.72%.
In the case of CCCN1CCC(Nc2cc(OC)cc(OC)c2)CC1, the activation is reported as inactive: 10.8%.
In the case of Cc1cc(N(CCCl)CCCl)ccc1C=O, the activation is reported as inactive: -1.33%.
In the case of c1ccc(CN2CCC(Nc3ccccc3)CC2)cc1, the activation is reported as inactive: -1.26%.
CC(C)(C)n1nnnc1C(c1cccc2ccccc12)N1CCC(n2c(=O)[nH]c3ccccc32)CC1 (configuration not stated) was tested, and the activation was inactive: 3.21%.
N#Cc1ccc(C(=O)NCC2(N3CCCCC3)CCCCC2)cc1 was tested, and the activation was inactive: -3.85%.
In the case of CC(C)(C)OC(=O)N1CCC(N(C(=O)c2ccccc2)c2ccc(Cl)cc2)CC1, the activation is reported as inactive: -2.41%.
In the case of CCOC(=O)C(CC)C1=NC(C)(C)Cc2ccccc21.O=[N+]([O-])c1cc([N+](=O)[O-])c(O)c([N+](=O)[O-])c1 (configuration not stated), the activation is reported as inactive: -4.53%.
With COc1cccc(C(c2nnnn2C(C)(C)C)N2CCC(n3c(=O)[nH]c4ccccc43)CC2)c1OC (configuration not stated) the activation was inactive: 6.65%.
CCOC(=O)N1CCC(Nc2ccc(C)cc2)CC1 was tested, and the activation was inactive: 8.14%.
In the case of N/C(=N\O)c1c(N)no[n+]1[O-], the activation is reported as inactive: -2.84%.
For O=C(O)c1cccc(Nc2c([N+](=O)[O-])cc([N+](=O)[O-])cc2[N+](=O)[O-])c1, the activation was inactive: -11.4%.
With O=c1[nH]c2ccccc2n1C1CCN(C(c2cccs2)c2nnnn2C2CCCC2)CC1 (configuration not stated) the activation was inactive: 6.03%.
O=C(OC1CN2CCC1CC2)C1c2ccccc2C=Cc2ccccc21 (configuration not stated) was tested, and the activation was inactive: -5.21%.
In the case of CCc1cc(C(=O)NCC2(N3CCCCC3)CCCCC2)sc1C, the activation is reported as inactive: -2.13%.
In the case of CCCCn1nnnc1C(c1cccc(OC)c1OC)N1CCC(n2c(=O)[nH]c3ccccc32)CC1 (configuration not stated), the activation is reported as inactive: 14.1%.
COc1cc(C(=O)NCC2(N3CCOCC3)CCCCC2)cc(OC)c1C was tested, and the activation was inactive: -0.192%.
In the case of CCCCn1nnnc1C(c1ccccc1)N1CCC(n2c(=O)[nH]c3ccccc32)CC1 (configuration not stated), the activation is reported as inactive: 13.4%.
With O=C(NCC1(N2CCOCC2)CCCCC1)c1cc(Br)ccc1Cl the activation was inactive: 0.115%.
O=c1[nH]c2ccccc2n1C1CCN(C(c2ccnc3ccccc23)c2nnnn2C2CCCC2)CC1 (configuration not stated) was tested, and the activation was inactive: -4.3%.
With COc1ccc(C(=O)NCC2(N3CCOCC3)CCCCC2)cc1OC the activation was inactive: -4.38%.
COc1cccc(C(c2nnnn2C2CCCC2)N2CCC(n3c(=O)[nH]c4ccccc43)CC2)c1OC (configuration not stated) was tested, and the activation was inactive: 4.14%.
With COc1cc(OC)cc(C(=O)NCC2(N3CCOCC3)CCCCC2)c1 the activation was inactive: -2.92%.
COc1cccc(C(=O)N(c2cc(C)cc(C)c2)C2CCN(C(=O)OC(C)(C)C)CC2)c1 was tested, and the activation was inactive: -3.87%.
CCC(CO)(C(=O)OC1CN2CCC1CC2)c1ccccc1 (configuration not stated) was tested, and the activation was inactive: 2.75%.
With CN1CCC(Nc2ccc(Cl)cc2)CC1 the activation was inactive: -2.73%.
For CN1CCC(Nc2ccc(F)c(Cl)c2)CC1, the activation was inactive: -3.99%.
CCOc1ncccc1C(=O)NCC1(N2CCOCC2)CCCCC1 was tested, and the activation was inactive: -2.23%.
For O=C(O)C1(Nc2ccccc2)CCN(Cc2ccccc2)CC1, the activation was inactive: 0.819%.
With CC(C)(C)OC(=O)N1CCC(Nc2ccccc2)CC1 the activation was inactive: -3.29%.
In the case of CCCOc1ccc(C(=O)NCC2(N(C)C)CCCCC2)cc1, the activation is reported as inactive: -3.6%.
For O=c1[nH]c2ccccc2n1C1CCN(C(c2cc3ccccc3o2)c2nnnn2C2CCCC2)CC1 (configuration not stated), the activation was inactive: 5.8%.
In the case of CC(C)(C)n1nnnc1C(c1ccnc2ccccc12)N1CCC(n2c(=O)[nH]c3ccccc32)CC1 (configuration not stated), the activation is reported as inactive: 3.92%.
For COc1ccc(C(c2nnnn2C2CCCCC2)N2CCC(n3c(=O)[nH]c4ccccc43)CC2)cc1 (configuration not stated), the activation was inactive: 6.71%.
With CCN1CCC(Nc2cccc(F)c2)CC1 the activation was inactive: -3.36%.
With Cc1ccccc1NC1(C#N)CCN(Cc2ccccc2)CC1 the activation was inactive: -0.577%.
Cn1c(=O)[nH]cc(N(CCCl)CCCl)c1=O was tested, and the activation was inactive: -1.66%.
In the case of CN(C)c1ccc(C(=O)NCC2(N3CCCCC3)CCCCC2)cc1, the activation is reported as inactive: -6.19%.
O=C(NCC1(N2CCCCC2)CCCCC1)c1ccco1 was tested, and the activation was inactive: 5.09%.
In the case of CCC(c1nnnn1C1CCCCC1)N1CCC(n2c(=O)[nH]c3ccccc32)CC1 (configuration not stated), the activation is reported as inactive: -3.14%.
CC(=O)N(c1ccccc1)C1CCNCC1 was tested, and the activation was inactive: -3.28%.
For O=c1[nH]c2ccccc2n1C1CCN(C(c2ccnc3ccccc23)c2nnnn2C2CCCCC2)CC1 (configuration not stated), the activation was inactive: 3.5%.
COc1cc(OC)cc(C(=O)NCC2(N3CCCCC3)CCCCC2)c1 was tested, and the activation was inactive: -3.27%.
For Cc1ccc(Nc2c([N+](=O)[O-])cc([N+](=O)[O-])cc2[N+](=O)[O-])cc1, the activation was inactive: 3.52%.
With Fc1ccccc1NC1CCN(Cc2ccccc2)CC1 the activation was inactive: 1.6%.
Cc1ccc(C(=O)NCC2(N3CCCCC3)CCCCC2)o1 was tested, and the activation was inactive: -0.482%.
In the case of Cc1ccc(NC2(C#N)CCN(Cc3ccccc3)CC2)cc1, the activation is reported as inactive: 0.712%.
In the case of O=c1[nH]c2ccccc2n1C1CCN(C(c2ccccc2)c2nnnn2C2CCCCC2)CC1 (configuration not stated), the activation is reported as inactive: 5.78%.
With COc1cc(C(=O)NCC2(N(C)C)CCCCC2)ccc1OC(F)F the activation was inactive: 0.547%.
In the case of CCOC(=O)N1CCC(Nc2cccc(C)c2)CC1, the activation is reported as inactive: -1.38%.
For O=c1[nH]c2ccccc2n1C1CCN(C(c2cccc3ccccc23)c2nnnn2C2CCCC2)CC1 (configuration not stated), the activation was inactive: -2.02%.
With O=C1CCN(Cc2ccccc2)CC1 the activation was inactive: -6%.
With CC(C)(C)n1nnnc1C(c1ccccc1)N1CCC(n2c(=O)[nH]c3ccccc32)CC1 (configuration not stated) the activation was inactive: 11.1%.
In the case of CCOc1ccc(C)cc1CN(CCCl)CCCl, the activation is reported as inactive: -0.262%.
COc1ccc(NC2CCN(CCc3ccccc3)CC2)c(OC)c1 was tested, and the activation was inactive: -2.45%.
In the case of CCOC(=O)N1CCC(Nc2ccc(F)cc2)CC1, the activation is reported as inactive: -4.96%.
With O=C(NCC1(N2CCCCC2)CCCCC1)c1ccc(F)cc1 the activation was inactive: 0.468%.
With O=P1(N(CCCl)CCCl)SCCCS1 the activation was inactive: 1.44%.
In the case of CCCCOc1ccc(C(=O)NCC2(N3CCOCC3)CCCCC2)cc1, the activation is reported as inactive: 5.7%.
In the case of Cc1cc(C)cc(N(C(=O)c2ccccc2)C2CCN(C(=O)OC(C)(C)C)CC2)c1, the activation is reported as inactive: -0.783%.
With O=c1[nH]c2ccccc2n1C1CCN(C(c2ccccc2OC(F)(F)F)c2nnnn2C2CCCCC2)CC1 (configuration not stated) the activation was inactive: -3.22%.
O=C(NCC1(N2CCCCC2)CCCCC1)c1ccc(Cl)nc1 was tested, and the activation was inactive: -0.731%.
With O=C(NCC1(N2CCOCC2)CCCCC1)c1cc2ccccc2o1 the activation was inactive: -2.28%.
With O=C1C(O)=C([N+](=O)[O-])C(=O)C(O)=C1[N+](=O)[O-] the activation was inactive: 1.7%.
With COc1ccc(Cl)cc1C(=O)NCC1(N2CCOCC2)CCCCC1 the activation was inactive: -7.51%.
With O=C(OC1CN2CCC1CC2)C1c2ccccc2Oc2ccccc21 (configuration not stated) the activation was inactive: -2.29%.
With O=c1[nH]c2ccccc2n1C1CCN(C(c2cc3ccccc3o2)c2nnnn2C2CCCCC2)CC1 (configuration not stated) the activation was inactive: 3.55%.
N#CC1(Nc2ccccc2)CCN(Cc2ccccc2)CC1 was tested, and the activation was inactive: -10.6%.
O=C(NCC1(N2CCCCC2)CCCCC1)c1ccc(Cl)s1 was tested, and the activation was inactive: 0.0206%.
With CCCCn1nnnc1C(c1ccc(OC)cc1)N1CCC(n2c(=O)[nH]c3ccccc32)CC1 (configuration not stated) the activation was inactive: 3.72%.
CCOC(=O)N1CCC(Nc2ccc(OC)cc2)CC1 was tested, and the activation was inactive: 1.62%.
For CCC(c1nnnn1C1CCCC1)N1CCC(n2c(=O)[nH]c3ccccc32)CC1 (configuration not stated), the activation was inactive: -0.289%.
For COc1ccc(C(=O)NCC2(N3CCCCC3)CCCCC2)c(OC)c1OC, the activation was inactive: -1.99%.
In the case of CC(C)(C)OC(=O)N1CCC(N(C(=O)c2ccccc2)c2ccc(F)cc2)CC1, the activation is reported as inactive: 0.0967%.
With COc1ccc(C(=O)NCC2(N3CCCCC3)CCCCC2)cc1 the activation was inactive: -0.912%.
With CCCCn1nnnc1C(CC)N1CCC(n2c(=O)[nH]c3ccccc32)CC1 (configuration not stated) the activation was inactive: -5.67%.
O=C(NCC1(N2CCCCC2)CCCCC1)c1cccs1 was tested, and the activation was inactive: -4.41%.
O=C(NCC1(N2CCCCC2)CCCCC1)c1ccc(=O)[nH]c1 was tested, and the activation was inactive: -0.481%.
Cc1cccc(NC2(C#N)CCN(Cc3ccccc3)CC2)c1 was tested, and the activation was inactive: -1.52%.
With CSc1ccccc1C(=O)NCC1(N2CCCCC2)CCCCC1 the activation was inactive: -2.12%.
In the case of O=C(OC1CN2CCC1CC2)c1ccc([N+](=O)[O-])cc1 (configuration not stated), the activation is reported as inactive: -0.655%.
O=C(NCC1(N2CCCCC2)CCCCC1)c1cncc(Br)c1 was tested, and the activation was inactive: 2.93%.
COc1ccc2c(c1O)-c1c(O)c(OC)cc3c1[C@H](C2)[N+](C)(C)CC3.O=[N+]([O-])c1cc([N+](=O)[O-])c([O-])c([N+](=O)[O-])c1[O-] was tested, and the activation was inactive: 1.91%.
With CN1CCC(Nc2cccc(F)c2)CC1 the activation was inactive: 2.41%.
In the case of O=[N+]([O-])c1cc([N+](=O)[O-])c(Nc2ccc(Cl)cc2)c([N+](=O)[O-])c1, the activation is reported as inactive: 8.89%.
COc1ccc(C(c2nnnn2C2CCCC2)N2CCC(n3c(=O)[nH]c4ccccc43)CC2)cc1 (configuration not stated) was tested, and the activation was inactive: 4.62%.
With CCCOc1ccc(C(=O)NCC2(N(C)C)CCCCC2)cc1OC the activation was inactive: -0.78%.
With Cc1ccc(C(=O)NCC2(N(C)C)CCCCC2)o1 the activation was inactive: 2.51%.
With CC(C)c1ccc(NC2CCN(C(=O)OC(C)(C)C)CC2)cc1 the activation was inactive: 0.114%.
In the case of CCCCn1nnnc1C(c1ccccc1OC(F)(F)F)N1CCC(n2c(=O)[nH]c3ccccc32)CC1 (configuration not stated), the activation is reported as inactive: 5.34%.
With O=[N+]([O-])c1cc([N+](=O)[O-])c(OC2CCCCC2O)c([N+](=O)[O-])c1 (configuration not stated) the activation was inactive: -9.36%.
